ClpP mod – qHTS Assay for Activators of ClpP; ATP-dependent Clp protease proteolytic subunit (Bacillus subtilis (strain 168)), P80244; Potency, µM (highest dose often 57.5 µM), inactives show at the highest dose activity change, negative = active; purified B. subtilis ClpP, FRET peptide cleavage, 20 min; 340,000 tested, 1.9% active; active = well fitted falling curve with a large enough effect; inconclusive = small, poorly fitted or top-dose-only effect; inactive = no such curve, though single readings can be large or run the other way; also: potency is read from the fitted curve at half-maximal effect; the source files actives as falling curves though it sought activators and does not explain the sign; nearly all actives have a fitted effect of over 65% in size
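Purified B. subtilis ClpP, 10 microg/mL final in Tris/HCl pH8 with KCl, BSA, glycerol and Tween-20, cleaved an Abz/nitrotyrosine-quenched decapeptide. Fluorescence (ex 320, em 430) was read at 0 and 20 min at room temperature. Delta was normalized to 5.8 microM ADEP and DMSO/no-enzyme controls.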
TrxR1 substrate – is turned over as a substrate by rat TrxR1; purified TrxR1 substrate turnover, NADPH consumption readout; Potency, µM (series often up to 114 µM), for inactives: at the top dose activity change, negative = substrate turnover; 390,000 tested, 0.01% active; also: potency is read from the fitted curve at half-maximal effect; % is scaled to controls: 0 for no effect and ±100 for the full control effect; nearly all actives have a fitted effect of over 50% in size
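Rat TrxR1, dispensed at 90 nM, was prereduced with 400 uM NADPH (final) for 5 min at ~22 deg C, then incubated with compound 15 min before 400 uM selenite. A first-read NADPH fluorescence drop versus no-compound background flagged substrates.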
miR-21 FLuc – raises the signal of a miR-21 reporter; HeLa miR-21 FLuc reporter, luciferase, 48 h; Potency, µM (top dose mostly 38.3 µM), for inactives: at the highest dose reporter change, positive = more light; AID 2288; 340,000 tested, under 10 active; active = well fitted rising curve with a large enough effect; inconclusive = small, poorly fitted or top-dose-only effect; inactive = no such curve, though single readings can be large or run the other way;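 note: % of control where 0% means no effect; miR-21 action dims this reporter so a rising signal means less miR-21 action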
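HeLa cells stably expressing CMV-driven firefly luciferase with a downstream miR-21 binding sequence, endogenously expressing miR-21, were treated with titrations (up to about 40uM final) for 48 hours at 37 degree Celsius. Luciferase luminescence was read after lysis.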
rTrxR1 inhibitor – blocks rat thioredoxin reductase 1; O89049; recombinant rTrxR1, NADPH fluorescence consumption, selenite substrate; Potency, µM (titrated, usually from 114 µM), inactives show at the top dose activity change, negative = inhibition, hits mostly inhibitors; 390,000 tested, 1% active; also: potency is read from the fitted curve at half-maximal effect; % is scaled to controls: 0 for no effect and ±100 for the full control effect; nearly all actives have a fitted effect of over 65% in size
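Rat TrxR1 (90 nM in the dispensed reagent) was pre-reduced with 400 uM NADPH for 5 min at room temperature, then incubated with compound for 15 min. After 400 uM selenite was added, NADPH fluorescence (Ex 340/Em 450 nm) was followed for 8 min.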
Anesthetic bind – binds horse apoferritin like a general anesthetic | 350,000 tested, 0.074% active | Potency, µM (titrated, usually from 77.5 µM), for the others: at the highest dose activity change, negative = displacement, actives largely listed as inhibitors | apoferritin/1-aminoanthracene competitive binding, fluorescence; also: potency is read from the fitted curve at half-maximal effect; % is scaled to controls: 0 for no effect and ±100 for the full control effect; nearly all actives have a fitted effect of over 20% in size
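Horse-spleen apoferritin (10 uM) was mixed with 50% saturated 1-aminoanthracene in PBS, exposed to compounds for 10 min at room temperature, and read for fluorescence (ex 380 nm, em 535 nm). Competitive displacement was fitted with a four-parameter Hill equation.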
* = called active by the depositor; ? = inconclusive; . = no result given; [ ] = another dose, or the depositor's remark. In the library only some 2.5% were active in any assay of this set; here they are far more common. Unless noted, calls follow the shape of the dose curve; as a rule, active = well fitted curve in the direction sought with a large enough effect; inconclusive = small, poorly fitted or top-dose-only effect, or another doubt; inactive = no such curve, though single readings can be large; an effect the other way counts as inactive or inconclusive.

The chains behind the UniProt entries cited, without tags or fusion partners.
ATP-dependent Clp protease proteolytic subunit (Bacillus subtilis (strain 168)), P80244, UniProt P80244, whole entry, looked up: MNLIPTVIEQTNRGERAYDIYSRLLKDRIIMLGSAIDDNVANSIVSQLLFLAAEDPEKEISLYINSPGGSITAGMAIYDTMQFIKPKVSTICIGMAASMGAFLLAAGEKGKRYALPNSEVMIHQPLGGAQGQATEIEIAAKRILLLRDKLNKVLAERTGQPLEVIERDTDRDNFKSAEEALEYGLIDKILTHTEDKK

SMILES	ClpP mod	TrxR1 substrate	miR-21 FLuc	rTrxR1 inhibitor	Anesthetic bind
CCOc1ccc(C(=O)c2cn(Cc3ccc(OC)cc3)c3cc(OC)c(OC)cc3c2=O)cc1	-1%	-11%	?	3%	?
CCCCCCC(=O)N(O)C1CC(=O)N(c2ccc(Cl)cc2)C1=O (configuration not stated)	.	9%[57.1 µM]	-10%	11µM*	-18%
CCCCCCC(=O)N(O)C1CC(=O)N(c2ccc(C)cc2)C1=O (configuration not stated)	-3%	13%	16%	16µM*	?
Cc1ccc(N2C(=O)CC(N(O)C3CC(=O)N(c4ccc(C)cc4)C3=O)C2=O)cc1 (configuration not stated)	3%	2%[57.1 µM]	-3%	?	-23%
Cc1ncc(CO)c(/C=N/NC(=O)c2ccc(O)cc2)c1O	?	107%	-11%	0%	686%
Cc1ncc(CO)c(/C=N/NC(=O)c2ccoc2C)c1O	25µM*	96%	.	-11%	.
Cc1ccc(CN(Cc2ccco2)C(=O)c2ccccc2Cl)o1	2%	-7%	22%	-13%	-15%
CCOC(=O)c1ccc(S(=O)(=O)NCC(c2ccc(N(C)C)cc2)c2c[nH]c3ccccc23)cc1 (configuration not stated)	25µM*	-17%[57.1 µM]	-6%	21%	-9%
CS(=O)(=O)c1ccc(Sc2nc3ccccc3s2)c([N+](=O)[O-])c1	-2%	-4%	?	40µM*	7%
O=[N+]([O-])c1cc(S(=O)(=O)C(F)(F)F)ccc1Sc1nc2ccccc2s1	0%	-7%	1%	1.6µM*	-18%
O=[N+]([O-])c1cc(S(=O)(=O)C(F)(F)F)ccc1Sc1nc2ccccc2[nH]1	25µM*	-13%	?	8.9µM*	?
O=C(Nc1nnc(S(=O)(=O)N2CCCc3ccccc32)s1)c1cccc(Cl)c1	-2%	-4%	0%	8%	-5%
O=C(/C=C/c1ccco1)NC(=S)Nc1ccccc1	1%	-12%	-10%	45µM*	-12%
O=C(/C=C/c1ccco1)NC(=S)Nc1cccc([N+](=O)[O-])c1	-2%	-2%[57.1 µM]	5%	20µM*	-7%
CSc1cccc(NC(=O)/C=C/c2ccco2)c1	.	-9%[57.1 µM]	-44%	14µM*	-12%
CCC(=O)NC(=S)Nc1ccc(NC(=O)c2ccco2)cc1	.	2%[57.1 µM]	-30%	-1%[57.1 µM]	1%
CCCCC(=O)NC(=S)Nc1cccc(NC(=O)c2ccco2)c1	25µM*	1%	-4%	8.9µM*	-24%
COc1cccc(NC(=O)/C=C/c2ccco2)c1	.	-7%	-51%	-69%	-12%
COc1ccccc1CNc1nc2ccccc2c2nc(-c3cccnc3)nn12	-5%	1%	0%	22%	-2%
Cc1cccc(NC(=S)NC(=O)/C=C/c2ccco2)c1	.	4%	-8%	22µM*	?

Laid out differently: entries from further up.
Under each structure – ClpP mod | TrxR1 substrate | miR-21 FLuc | rTrxR1 inhibitor | Anesthetic bind
CCOc1ccc(C(=O)c2cn(Cc3ccc(OC)cc3)c3cc(OC)c(OC)cc3c2=O)cc1
→ -1% | -11% | ? | 3% | ?
O=[N+]([O-])c1cc(S(=O)(=O)C(F)(F)F)ccc1Sc1nc2ccccc2[nH]1
→ 25µM* | -13% | ? | 8.9µM* | ?
O=C(/C=C/c1ccco1)NC(=S)Nc1cccc([N+](=O)[O-])c1
→ -2% | -2%[57.1 µM] | 5% | 20µM* | -7%
O=C(Nc1nnc(S(=O)(=O)N2CCCc3ccccc32)s1)c1cccc(Cl)c1
→ -2% | -4% | 0% | 8% | -5%
COc1cccc(NC(=O)/C=C/c2ccco2)c1
→ . | -7% | -51% | -69% | -12%

Continuation.
SMILES	ClpP mod	TrxR1 substrate	miR-21 FLuc	rTrxR1 inhibitor	Anesthetic bind
CCN(CC)Cc1c(NC(=O)c2ccccc2)sc(C)c1C	.	3%	-38%	7.1µM*	-10%
C=Cc1ccc(CSc2nc(-c3ccc(OC)cc3)nc3c2Cc2c(CO)cnc(C)c2O3)cc1	-8%	-1%	-4%	1%	-14%
CC(C)CN1C(=O)/C(=C/c2cccs2)NC1=S	0%	-3%	-7%	14µM*	-14%
O=S(=O)(c1ccc2ccccc2c1)N1CCN(c2nc(-c3ccccc3)nc3ccccc23)CC1	-15%	1%	.	8%	.
Cn1c(=O)c([N+](=O)[O-])c(Cl)c2ccccc21	-2%	8%[57.1 µM]	13%	2.2µM*	-9%
Cc1ccc(-c2cc(C(=O)O)c3cc(Br)ccc3n2)o1	?	90%	2%	?	-6%
Cc1ccc(-c2cc(C(=O)NCCCn3ccnc3)c3cc(Br)ccc3n2)o1	-20%	27%[57.1 µM]	-1%	14µM*	-9%
COc1ccccc1N1CCN(C(=O)Cn2c(=O)nc(-c3ccccc3)c3ccccc32)CC1	-17%	3%[57.1 µM]	3%	8%[57.1 µM]	-5%
O=C(Nc1cccnc1)C1(F)C(F)(F)C(F)(F)C(F)(F)C(F)(F)C1(F)F	-3%	-10%[57.1 µM]	-1%	?	13µM*
